Here are results for one substance from PMC9088906 (ACS Omega, 2022).

Sequences of proteins named here, by UniProt entry; tags and fusion partners are left off. Residues count along the entry.
UniProt P53779, 40-402: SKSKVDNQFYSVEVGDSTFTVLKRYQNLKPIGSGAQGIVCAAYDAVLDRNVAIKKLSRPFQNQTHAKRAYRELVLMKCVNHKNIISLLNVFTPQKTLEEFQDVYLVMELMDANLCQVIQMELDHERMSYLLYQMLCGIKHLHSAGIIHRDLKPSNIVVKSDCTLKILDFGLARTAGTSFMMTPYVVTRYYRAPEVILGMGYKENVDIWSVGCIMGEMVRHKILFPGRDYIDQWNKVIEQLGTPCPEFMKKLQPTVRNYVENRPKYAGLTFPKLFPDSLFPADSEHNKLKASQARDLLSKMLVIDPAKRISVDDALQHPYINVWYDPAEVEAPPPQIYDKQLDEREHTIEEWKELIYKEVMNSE

For this assay, the target named is human JNK3 (Homo sapiens, UniProt P53779). Nature of the assay: Fluorescence thermal shift. The class given is binding.

For the substance SP600125, the “maximum Tm shift” value (500 μM ligand, protein concentration 2 μM) was approximately 12.7 °C. For the same substance, the ΔTm50 (HTS–FTS, compound concentration 200 μM, JNK3 2 μM, mean n = 3) worked out at 7.86 °C.
